Source: publication doi:10.1101/2023.02.06.527249

Protein sequences, listed by entry. Tags and fused reporters are not part of them. Residues count along the entry.
UniProt P43632, 22-245: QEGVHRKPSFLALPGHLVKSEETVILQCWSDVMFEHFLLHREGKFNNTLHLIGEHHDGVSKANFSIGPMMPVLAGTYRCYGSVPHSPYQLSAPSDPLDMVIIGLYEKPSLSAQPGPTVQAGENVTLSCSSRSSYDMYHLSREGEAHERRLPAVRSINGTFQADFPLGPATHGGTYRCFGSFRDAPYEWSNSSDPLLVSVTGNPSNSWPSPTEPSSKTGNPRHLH

Molecular target: HLA-C*16:02 on cells loaded with P9 with the Q8W substitution (…) (human | human (endogenous in 721.221))
Test: flow cytometry on cells

Question: “KIR2DS4*001 KIR-Ig (KIR-Fc) fusion protein (from UniProt P43632 22-245) (Fc fusion)” was tested. Which fold change of binding against unmodified P9 did it give?
Answer: 90 fold
